The results in this text go back to patent US20250144229A1, “CONJUGATE OF ANTIBODY-ERIBULIN OR DERIVATIVE THEREOF, INTERMEDIATE THEREOF, PREPARATION METHOD THEREFOR, PHARMACEUTICAL COMPOSITION THEREOF AND USE THEREOF” (MEDLINK THERAPEUTICS (SUZHOU) CO., LTD., priority 2022, published 2025).

In experiment [1] the target is B7H3 protein on human tumor cells (MCF-7, A549, PC-3, HT29) (human) (UniProt Q5ZPR3). The experiment can be described thus: flow cytometry on MCF-7 tumor cells; reference B7H3-C1. (In general: Flow cytometry measures light scatter and fluorescence of single cells or particles in a stream.)
Experiment [2] has as its target T1, human B7H3-4IgG-His (human, UniProt Q5ZPR3 27-461).
T1 construct: range 27-461; Recombinant antigen expressed in HEK293F cells; also called human 4Ig B7H3
T1 sequence: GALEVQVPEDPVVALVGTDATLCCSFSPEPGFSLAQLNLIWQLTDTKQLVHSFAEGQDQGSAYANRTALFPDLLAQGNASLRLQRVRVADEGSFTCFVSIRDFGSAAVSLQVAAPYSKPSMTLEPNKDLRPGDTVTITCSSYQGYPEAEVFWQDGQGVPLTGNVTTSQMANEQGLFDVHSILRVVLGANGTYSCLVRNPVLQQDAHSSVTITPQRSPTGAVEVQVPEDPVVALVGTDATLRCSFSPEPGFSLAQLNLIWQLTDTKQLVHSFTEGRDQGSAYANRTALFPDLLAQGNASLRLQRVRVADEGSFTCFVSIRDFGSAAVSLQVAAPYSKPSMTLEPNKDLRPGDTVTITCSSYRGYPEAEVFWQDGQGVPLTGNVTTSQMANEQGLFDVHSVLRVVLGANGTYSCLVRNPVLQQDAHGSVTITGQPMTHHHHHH
Nature of the experiment: ELISA, antigen coated on the plate, anti-human Fc-HRP detection. As for the experimental part:
(§1) The affinity of B7H3 full human antibody to human B7H3-4IgG-His and monkey B7H3-4IgG-His proteins was tested by ELISA. Specific experimental procedures: Human B7H3-4IgG-His or monkey B7H3-4IgG-His proteins were diluted to a final concentration of 1 g/mL using carbonate buffer with a pH value of 9.6, then added to a 96-well ELISA plate at 100 μL/well, and coated overnight at 4° C. The coating solution was discarded, and the plate was washed once with PBST. 100 μL of PBS (containing 2% BSA) was added to each well, and blocked at 37° C. for 1 hour. 100 μL of B7H3 full human antibody diluted with PBS (containing 2% BSA) (starting at 10 g, 3-fold serial dilution in duplicate wells) was then added to each well, and incubated at 37° C. for 2 hours. The plate was washed three times with PBST, added with horseradish peroxidase-labeled anti-human Fc antibody (diluted at 1:10000 with PBS) at 100 μL/well, and incubated at 37° C. for 1 hour. The plate was washed five times with PBST. TMB chromogenic solution was added at 100 μL/well to develop color at 37° C. for 7 minutes. Stop solution was added at 50 μL/well to terminate the reaction. The absorbance was measured at 450 nm. EC₅₀ values were calculated from original data.
A general note: In an ELISA, binding on a coated surface is turned into a signal by an enzyme label.

The target of experiment [3] is T2, monkey B7H3-4IgG-His (monkey).
T2 chain: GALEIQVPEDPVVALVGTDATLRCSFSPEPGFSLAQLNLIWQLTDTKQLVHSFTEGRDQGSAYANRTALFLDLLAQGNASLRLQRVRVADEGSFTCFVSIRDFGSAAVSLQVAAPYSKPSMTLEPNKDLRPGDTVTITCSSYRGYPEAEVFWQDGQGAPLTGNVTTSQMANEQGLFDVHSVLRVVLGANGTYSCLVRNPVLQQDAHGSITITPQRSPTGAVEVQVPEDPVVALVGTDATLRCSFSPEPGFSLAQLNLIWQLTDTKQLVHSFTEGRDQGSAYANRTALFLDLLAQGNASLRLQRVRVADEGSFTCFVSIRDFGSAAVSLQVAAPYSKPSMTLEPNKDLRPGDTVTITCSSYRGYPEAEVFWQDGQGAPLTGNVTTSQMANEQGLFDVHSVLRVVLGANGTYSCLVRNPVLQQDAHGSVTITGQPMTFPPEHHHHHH
Described as above. As for the experimental part: as §1

The target of experiment [4] is B7H3 protein on human tumor cells (MCF-7, A549, PC-3, HT29) (human) (UniProt Q5ZPR3). Nature of the experiment: flow cytometry on A549 tumor cells.
The target is the same in experiment [5]. Nature of the experiment: flow cytometry on A549 tumor cells; reference B7H3-C1.
The target is the same in experiment [6]. The experiment can be described thus: flow cytometry on MCF-7 tumor cells.
Experiment [7] shares this target. Nature of the experiment: flow cytometry on MCF-7 tumor cells; reference B7H3-C2.
Experiment [8] shares this target. Nature of the experiment: flow cytometry on PC-3 tumor cells; reference B7H3-C1.
Experiment [9] has the same target. The experiment can be described thus: flow cytometry on PC-3 tumor cells.
The target is the same in experiment [10]. The experiment can be described thus: flow cytometry on PC-3 tumor cells; reference B7H3-C2.

B1: anti-B7H3 antibody 1D1-01 (antibody, human IgG1, kappa, V domains shown)
VH: EGQLVESGGGLVQPGGSLRLSCAASGFTISSYWMNWVRQAPGKGLEWVANIKQDGSEKYYVDSVQGRFTISRDNAKNSLYLQMNSLRAEDTAVYYCARRMYSSGWYWGAFDMWGQGTMVTVSS
VL: EIVLTQSPGTLSLSPGERATLSCRASQSVSSIYLAWNQQKPGQAPRLLIYGTFKRATGIPDRFSGSGSGTDFTLTISSLEPEDFAVYYCQQYDTSSITFGQGTRLEIKR
What is called EC50 is the concentration at which the effect is half-maximal. As for B1, the maximum fluorescence signal value, percent higher than that of B7H3-C1 in experiment [1] came out at 12%; in experiment [5] it was 36%. For the same molecule, the EC50 in [2] is 0.0436 nM; in [3] it was 0.0358 nM; in [4], 0.322 nM; in [6], 0.524 nM. The values for the Maximum MFI in experiment [4] and in [6] were 11300 and 94500, respectively.

B2: anti-B7H3 antibody 2E3-02 (antibody, human IgG1, kappa, V domains shown)
VH: EVQLLESGGGLVQPGGSLRLSCAASGFTFSSYAMNWVRQAPGKGLEWVSGISGSGGSTYYADSVQGRFTISRDNSKNTLYLQMNSLRAEDTAVYYCAKARSGYDYFFDYWGQGTLVTVSS
VL: EIVLTQSPGTLSLSPGERATLSCRASQRISSSFLAWYQQKPGQAPSLLIYGASSRATGIPDRFSGSGSGTDFTLTISSLEPEDFAVFYCQQYSNSPLTFGGGTKVEIKR
On to B2, for which the figures for the maximum fluorescence signal value, times higher than that of B7H3-C2 in experiment [7] and in experiment [10] were 2.78 times and 4.48 times, respectively. The maximum fluorescence signal value, percent higher than that of B7H3-C1 in [1] turned out to be 23%; in [5] it was 77%. In experiment [8], the maximum fluorescence signal value, times higher than that of B7H3-C1 is 1.51 times. Besides, the EC50 in experiment [2] turned out to be 0.0175 nM; in experiment [3], 0.0277 nM; in experiment [9], 0.063 nM; in experiment [4], 0.15 nM; in [6], 0.398 nM. Moreover, the Maximum MFI in [9] was 9730; in experiment [4] it was 84800; in [6], 77700.
